miR-21 FLuc: miR-21 reporter, rising signal | HeLa miR-21 FLuc reporter, luciferase, 48 h | Potency, µM (highest dose often 38.3 µM) | 340,000 tested, under 10 active | AID 2288; active = well fitted rising curve with a large enough effect; inconclusive = small, poorly fitted or top-dose-only effect; inactive = no such curve, though single readings can be large or run the other way;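 further: miR-21 action dims this reporter so a rising signal means less miR-21 action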
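Using DMEM plus 10% FBS, HeLa miR-21-FLuc cells are incubated with test compounds (final up to about 40uM) for 48 hours; firefly luciferase signal is then imaged following reagent-mediated lysis.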
Nrf2 inh: blocks Nrf2 signaling; A549 ARE-Fluc reporter, luciferase luminescence, 18-24 h; Potency, µM (titrated, usually from 46 µM), actives largely listed as inhibitors; 360,000 compounds, 2.1% hits; AID 504444; further: nearly all actives have a fitted effect of over 60% in size
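Cells were seeded and rested 2 h, then exposed to compounds for 18-24 h. CellTiter-Fluor was read first as a viability measure. BugLite was added 15 min before the final luminescent read of ARE-luciferase activity in A549 cells.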
Nrf2 ARE act: activators of Nrf2 (ARE) signaling. AREc32 ARE-luciferase reporter (MCF7-derived line), luminescence, 24 h. Potency, µM (highest dose often 46.1 µM), actives largely listed as activators. 410,000 compounds, 0.31% hits. AID 624171; further: nearly all actives have a fitted effect of over 65% in size
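AREc32_Fluc, 1000 cells/well, OPTI-MEM + 5% FBS, o/n 37 deg C 5% CO2; 23 nL cpd by pin tool, 24 hr; Steady-Glo 30 min RT, luminescence.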
A549 viability: kills or reduces viability of A549 cells in Nrf2 counter-screen. A549 ARE-Fluc cells, CellTiter-Fluor viability, 18-24 h. Potency, µM (series often up to 46 µM), hits mostly inhibitors. 390,000 compounds, 0.16% hits
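A549 ARE-Fluc cells in 5% FBS OPTI-MEM, 5000 cells/well, rested 2 h then exposed to compounds in concentration-response for 18-24 h at 37 °C. Viability by CellTiter-Fluor fluorescence (Ex 405/Em 525) after 30 min; luciferase luminescence (BugLite, 15 min, RT) read afterwards.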
Mito fusion act: mitochondrial division inhibition or fusion activation. S. cerevisiae fusion-defective mutant growth rescue, CellTiterGlo 48 h. Potency, µM (top dose mostly 46.1 µM), usual class: activators. 320,000 compounds, 0.23% hits; further: nearly all actives have a fitted effect of over 45% in size
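Compounds are tested for their ability to restore growth of mitochondrial fusion-defective yeast strains at non-permissive 37C in YPEG medium over 48 hours. Viability is quantified by luciferase luminescence.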
Each line names hits and unclear results; the compound was inactive in the other large screens. This is a sample that favours compounds with a hit; in the whole collection about 2.3% have one here. Unless noted, the call rests on the fitted dose curve; in most records, active means well fitted curve in the direction sought with a large enough effect; inconclusive means small, poorly fitted or top-dose-only effect, or another doubt; inactive means no such curve, though single readings can be large; an effect the other way counts as inactive or inconclusive.

O=C1c2ccccc2C(=O)N1c1noc2ccccc12	Nrf2 inh inconclusive (no result: miR-21 FLuc, Nrf2 ARE act, Mito fusion act)
N#Cc1ccc(CN2CCN(C(=O)CNC(=O)Cc3cccc4ccccc34)CC2)cc1	Nrf2 inh 5.8µM (no result: miR-21 FLuc)
CCc1ccccc1NC(=O)CN1CCN(C(=O)CNC(=O)Cc2cccc3ccccc23)CC1	Nrf2 inh 15µM (no result: miR-21 FLuc)
COc1ccc(NC(=O)CSc2nnc3c(n2)[nH]c2ccc(S(=O)(=O)N(C)C)cc23)c(OC)c1	none (no result: miR-21 FLuc, Nrf2 ARE act, Mito fusion act)
CCCCNc1cnn(-c2ccccc2)c(=O)c1Cl	Nrf2 inh inconclusive
CCc1ccc(Nc2cnn(-c3nc4ccccc4s3)c(=O)c2Cl)cc1	A549 viability inconclusive, Mito fusion act 11µM
CC(=O)c1c(C(C)=O)c(C)n(-c2nc(-c3ccc(Br)cc3)c(C)s2)c1C	Nrf2 inh 26µM, A549 viability inconclusive
COc1ccc(C(=O)/C=C/C(=O)N(CC(=O)NC2CCCCC2)CC2CCCO2)c(O)c1 (stereo unspecified)	miR-21 FLuc inconclusive, Nrf2 inh 21µM, Nrf2 ARE act inconclusive, A549 viability inconclusive
COc1ccc(C(=O)/C=C/C(=O)N(CC(=O)NC2CCCCC2)Cc2ccccc2)c(O)c1	A549 viability inconclusive
CC(C)(C)c1ccc(C(=O)NC2=NC(c3cccc(F)c3)CC(=O)N2)cc1 (stereo unspecified)	none (no result: Mito fusion act)
O=C(Cn1nc(-c2ccccc2)c2cnc3ccc(F)cc3c21)NC1CCCC1	none (no result: Mito fusion act)
NC(=S)NN=C1CSSC1	Nrf2 ARE act 10µM (no result: miR-21 FLuc, Nrf2 inh, A549 viability, Mito fusion act)
CC1(C)CCC(=NNC(N)=S)CC1	none (no result: miR-21 FLuc, Mito fusion act)
CS(=O)(=O)N(CC(=O)Nc1ccc(CC#N)cc1)c1ccc(C23CC4CC(CC(C4)C2)C3)cc1	Nrf2 inh 15µM, A549 viability inconclusive
CC(=O)Nc1ccc(NC(=O)CN(c2ccc(C34CC5CC(CC(C5)C3)C4)cc2)S(C)(=O)=O)cc1	none
COc1ccc(S(=O)(=O)N(C)C)cc1NC(=O)C1CCN(c2ncnc3sc(C)c(C)c23)CC1	Nrf2 inh 12µM, A549 viability inconclusive (no result: miR-21 FLuc, Mito fusion act)
Cc1sc2ncnc(N3CCC(C(=O)Nc4ccc(S(N)(=O)=O)cc4)CC3)c2c1C	Nrf2 inh inconclusive (no result: miR-21 FLuc)
Cc1sc2ncnc(N3CCC(C(=O)Nc4cc(Cl)ccc4Cl)CC3)c2c1C	Nrf2 inh inconclusive, Mito fusion act inconclusive (no result: miR-21 FLuc)
Cc1sc2ncnc(N3CCC(C(=O)Nc4cc(S(C)(=O)=O)ccc4Cl)CC3)c2c1C	Nrf2 inh 18µM (no result: miR-21 FLuc)
COc1ccccc1-c1nn(CCC(=O)Nc2cccc(C(C)=O)c2)c2nc(C)cc(C)c12	none (no result: Mito fusion act)
C=Cc1ccc(Cn2c(C(=O)O)c(CNCc3ccccc3)c3ccc(OC)cc32)cc1	A549 viability inconclusive (no result: Mito fusion act)
COC(=O)c1c(NC(=O)c2ccccc2)sc(C(N)=O)c1C	Nrf2 inh inconclusive, Nrf2 ARE act 1µM
Cc1cccc(-c2nnc(SCC(=O)NC3CCCCC3)o2)c1	Nrf2 inh inconclusive (no result: Mito fusion act)
Cc1cc2oc(C(=O)Nc3c(C)n(C)n(-c4ccccc4)c3=O)cc(=O)c2cc1C	none (no result: Mito fusion act)
CCc1ccc(N2CCn3c2nc2c3c(=O)n(Cc3c(F)cccc3Cl)c(=O)n2C)cc1	Nrf2 inh 23µM (no result: Mito fusion act)
C(=C\c1nc(-c2ccccc2)no1)/c1ccccc1	Nrf2 inh inconclusive, Nrf2 ARE act 14µM
O=C(NCCc1nc2ccccc2n1Cc1ccccc1F)c1ccc(F)cc1	Nrf2 inh 23µM, A549 viability inconclusive (no result: Mito fusion act)
Cn1c(CCNC(=O)c2ccc(F)cc2)nc2ccccc21	none
CCOC(=O)N1CCN(c2ccc(S(=O)(=O)N(Cc3ccccc3)Cc3ccccc3)cn2)CC1	Nrf2 inh 16µM
CCOC(=O)N1CCN(c2ccc(S(=O)(=O)N3CCOCC3)cn2)CC1	Nrf2 inh inconclusive (no result: miR-21 FLuc, Mito fusion act)
CCN(CC)S(=O)(=O)c1ccc(N2CCN(c3ccccc3O)CC2)nc1	Nrf2 inh 18µM
Cc1cc(C)c(NC(=O)Cn2c(=O)n(Cc3ccc4c(c3)OCO4)c(=O)c3ccccc32)c(C)c1	none (no result: Mito fusion act)
Cc1cc(C)c(NC(=O)Cn2c(=O)n(Cc3ccc(C(=O)NCc4ccc5c(c4)OCO5)cc3)c(=O)c3ccccc32)c(C)c1	Nrf2 inh 15µM (no result: Mito fusion act)
CCCCC(=O)Nc1cc(C)c(O)c(-c2nc3ncccc3o2)c1	Nrf2 inh inconclusive (no result: Mito fusion act)
CCCN1C(=O)c2[nH]nc(-c3ccccc3O)c2C1c1ccc(OCc2ccccc2)c(OCC)c1 (stereo unspecified)	miR-21 FLuc inconclusive, Nrf2 inh inconclusive (no result: Mito fusion act)
COc1ccc(C(=O)N(Cc2cc(OC)c(OC)c(OC)c2)CC2CCCO2)cc1 (stereo unspecified)	none (no result: Mito fusion act)
COc1ccc(-c2nnc(SCC(=O)N(Cc3ccccc3)C(C)(C)C)o2)cc1OC	miR-21 FLuc inconclusive, Nrf2 inh 23µM
CCOC(=O)C1CCCN(S(=O)(=O)c2cc3c4c(c2)CC(=O)N4CCC3)C1 (stereo unspecified)	none (no result: Nrf2 inh, Mito fusion act)
O=C(COc1ccccc1)NNc1c2ccccc2nc2ccccc12	A549 viability inconclusive (no result: Nrf2 inh)
COc1ccc(OCC(=O)NNc2c3ccccc3nc3ccccc23)cc1	miR-21 FLuc inconclusive, Nrf2 inh 21µM, A549 viability inconclusive
O=S1(=O)c2cccc3cccc(c23)N1Cc1nnc(-c2ccccc2Br)o1	Nrf2 inh 21µM
O=C1c2ccccc2S(=O)(=O)N1Cc1nnc(-c2ccccc2Br)o1	none
c1ccc(-c2cc3c(-n4cccc4)ncnc3o2)cc1	Nrf2 ARE act 3.2µM
COc1cc(/C=C/c2sc3ccccc3[n+]2CCCS(=O)(=O)[O-])ccc1O	Nrf2 inh inconclusive, A549 viability 12µM
Cc1ccc2oc(C(F)(F)C(F)F)cc(=O)c2c1	none
Cc1ccc2oc(C(Cl)(Cl)Cl)cc(=O)c2c1	Nrf2 ARE act 22µM, A549 viability inconclusive
CN=c1sc2c(n1C)C(=O)c1ccccc1C2=O	Nrf2 inh 21µM, A549 viability inconclusive (no result: miR-21 FLuc, Mito fusion act)
CCN(CC)c1ccc(/C=C/c2cccc[n+]2C)c(OC)c1	miR-21 FLuc inconclusive, Nrf2 inh 5.8µM, A549 viability 7.3µM
CCCCC(=O)OC1=C(C(=O)c2ccccc2)N(CC)S(=O)(=O)c2ccccc21	Nrf2 inh inconclusive, A549 viability inconclusive (no result: Mito fusion act)
CCCCN1C(C(=O)c2ccccc2)=C(OC(C)=O)c2ccccc2S1(=O)=O	miR-21 FLuc inconclusive, Nrf2 inh 8.2µM, A549 viability inconclusive (no result: Mito fusion act)
CC(=O)Nc1ccc(S(=O)(=O)N2CCN=C2SCc2ccc([N+](=O)[O-])cc2)cc1	Nrf2 inh 8.2µM
O=C(CNC(=O)c1ccccc1)OCC(=O)c1ccccc1	none (no result: miR-21 FLuc, Nrf2 ARE act, Mito fusion act)
O=S(=O)(Nc1cccc(-c2cn3cccnc3n2)c1)c1ccc(F)cc1	Nrf2 inh 16µM
C/C(=N\NC(=O)c1c(Cl)c(C)nn1C)c1cccc(NC(=O)c2cccc(F)c2)c1	Nrf2 inh 9.2µM
CC1CCc2noc(NC(=O)c3ccccc3[N+](=O)[O-])c2C1 (stereo unspecified)	none (no result: Mito fusion act)
Cc1c(Cl)cccc1NC(=O)Cn1c(=O)nc(-c2ccccc2)c2ccccc21	none (no result: Nrf2 inh, Mito fusion act)

Screening data as filed in PubChem BioAssay.
